This passage reports MIC results from ChEMBL document CHEMBL5532639, “Heterocyclic pyrimidine derivatives as promising antibacterial agents” (Eur J Med Chem, 2023).

The test system of one assay is Staphylococcus aureus. The conditions noted are these: ATCC 25923, time 24.0 hrs.
Assay [1] has as its system Escherichia coli. The assay can be described thus: Antibacterial activity against Escherichia coli. In kind it is functional.
Assay [2] relates to Escherichia coli. The note with it: ATCC 25922, time 24.0 hrs.

One may read the MIC as the smallest concentration in the dilution series that meets the test's criterion for growth inhibition.

For the sequence GENTAMICIN, the MIC against Staphylococcus aureus stood at 0.5 µg/mL; in the assay on Escherichia coli [1] it was 0.49 µg/mL; against Escherichia coli [2], 0.5 µg/mL.
